Reference: PubChem BioAssay AID1479 (National Center for Advancing Translational Sciences (NCATS), 2009)
Several values for one entry are separate records, joined by “and”; a condition that tells them apart may be missing. Identical values can stand only once. The list shows a part of the results, in another mix than the full data. Activity calls are given as the source filed them. Calls come from the whole dose curve; as a rule, active = well fitted curve in either direction with a large enough effect; inconclusive = small, poorly fitted or top-dose-only effect; inactive = flat fitted curve, though single readings scatter.

Experiment: Total Fluorescence Counterscreen for Inhibitors of the Interaction of Thyroid Hormone Receptor and Steroid Receptor Coregulator 2
Settings: TRb/SRC2 Texas Red total fluorescence interference
% is set by controls: 0 for no effect and ±100 for the full control effect.

SMILES	fluorescence change, negative = quenching (at 106 µM (top of the series))	fluorescence change, negative = quenching (at 201 µM (top of the series))
O=[N+]([O-])C(Cl)(Cl)Cl	inactive: 0.761%	inactive: 0.0105%
CN(CCCl)CCCl	inactive: -2.44% and inactive: -0.769%	–
